These results are taken from PubChem BioAssay AID602274 (Sanford-Burnham Center for Chemical Genomics, 2012).

Each structure is given as a SMILES string. The entries are a selection whose mix differs from that of the whole data set. Active and inactive are the calls of the source. Cut-off read from the data, not from the text of the source: active = survival enhancement above about 18%; inactive = the rest.

The nature of this assay: enhancers of single-cell hiPSC survival, primary screen, ATPlite luminescence (AID 602274).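 Note: cells exposed to compounds for 16 hours before the ATP read.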 The following applies: at 20 µM, hits give high values, 100% = ROCK inhibitor wells, 0% = DMSO.
Take `O=[As](O)(c1cccs1)c1cccs1`: the survival enhancement is inactive: -0.3%.
Regarding `NS(=O)(=O)c1cccc(NC(=O)COC(=O)C(O)(c2ccccc2)c2ccccc2)c1`, the survival enhancement is inactive: 6.2%.
Turning to `O=P1(Nc2ccc(Br)cn2)COc2ccccc2OC1`, the survival enhancement is inactive: 0.2%.
As for `Nc1cccc([As](=O)(O)c2ccccc2)c1`, the figure is inactive: 0.1%; as for `O=P1(Nc2ncccn2)COc2ccccc2OC1`, inactive: -2.3%.
Regarding `Cc1ccc(S(=O)(=O)N(CCCN)CCCc2c(C)nc(N)[nH]c2=O)cc1`, the survival enhancement is inactive: 0.9%.
Take `CCCC1OP(=O)(Nc2ccccc2)OCC1CC` (configuration not stated): the survival enhancement was inactive: 1.8%.
`O=C(/C=C/c1ccccc1)OC1CN2CCC1CC2` (configuration not stated): the survival enhancement is inactive: -0.6%.
As for `Cc1ccc(C(=O)OC2CN3CCC2CC3)cc1` (configuration not stated), the figure is inactive: 0.3%; as for `CC1CCC(C(C)C)C(OP(=O)(Nc2ccccn2)c2ccccc2)C1` (configuration not stated), inactive: -0.6%.
Turning to `Cc1nn(-c2ccccc2)c2c1P(=O)(N1CCOCC1)N(C)C(c1ccccc1)=N2` (configuration not stated), the survival enhancement was inactive: 0.6%.
`CC1(CBr)Cn2c(nc3ccccc3c2=O)S1` (configuration not stated): the survival enhancement is inactive: -0.8%.
`CN(C(=O)Cc1ccc(Cl)c(Cl)c1)[C@@H]1CCCC[C@H]1N1CCCC1`: the survival enhancement is inactive: -0.6%.
`CC(C)/C=N\N=C(\N)N[N+](=O)[O-]`: the survival enhancement is inactive: -0.5%.
On to `COc1ccccc1CNC(=O)COC(=O)C(O)(c1ccccc1)c1ccccc1`, for which the survival enhancement is inactive: -0.5%.
The result for `CC(C)(C)C(=O)NC(Sc1ncccn1)C(Cl)(Cl)Cl` (configuration not stated) reads inactive: 0.1%; that for `Clc1n[nH]nc1-c1nn[nH][15n]1`, inactive: -1.4%.
Turning to `O=P1(N(CCCl)CCCl)NCCC(C(F)(F)F)O1` (configuration not stated), the survival enhancement is inactive: 4.3%.
For the molecule `CCOP(=O)(Nc1ccc(C)cn1)OCC`, the survival enhancement was inactive: 0.8%.
Regarding `CN(CCCl)Cc1cc(Cl)c(NC2=NCCN2)c(Cl)c1`, the survival enhancement is inactive: -1.1%.
In the case of `CCOP(=O)(NC(=NC(C)c1ccccc1)NC(C)c1ccccc1)OCC` (configuration not stated), the survival enhancement is inactive: -0.1%.
Regarding `CCC1=CC2Cc3nc4ccc(Cl)cc4c(N)c3C(C1)C2` (configuration not stated), the survival enhancement was inactive: -0.4%.
In the case of `O=P1(Nc2ccccn2)COc2ccccc2OC1`, the survival enhancement was inactive: 5.1%.
As for `c1nnnn1CCn1cnnn1`, the survival enhancement was inactive: -3%.
As for `O=P(Nc1nccs1)(c1ccccc1)c1ccccc1`, the figure is inactive: 0.5%; as for `CC(C)C(=O)NC(Sc1ccccc1)C(Cl)(Cl)Cl` (configuration not stated), inactive: -0.7%.
Regarding `C(Cc1nn[nH]n1)Cc1nn[nH]n1`, the survival enhancement is inactive: 0%.
As for `Nc1ccc([As](=O)(O)c2ccc([N+](=O)[O-])cc2)cc1`, the figure is inactive: 2.3%.
As for `O=C(OC1CN2CCC1CC2)c1cccc(Cl)c1` (configuration not stated), the figure is inactive: 2.7%.
Regarding `CC(=O)NC(SC(=S)N(C)C)C(Cl)(Cl)Cl` (configuration not stated), the survival enhancement is inactive: 0.8%.
Regarding `O=[N+]([O-])c1ncn(CCn2cnc([N+](=O)[O-])n2)n1`, the survival enhancement was inactive: -0.6%.
Consider `O=[N+]([O-])c1ccc(O)c(/C=N/Nc2ccc([N+](=O)[O-])cc2[N+](=O)[O-])c1`, for which the survival enhancement was inactive: -0.7%.
For `O=[As](O)(c1ccccc1)c1ccc(O)cc1`, the survival enhancement is inactive: -0.1%.
As for `C[C@H]1OP(=O)(Oc2ccccc2)[C@H](O)[C@H](O)[C@H]1N=[N+]=[N-]` (some centres not stated), the survival enhancement was inactive: 11.9%.
The result for `O=P(Nc1nc2ccccc2s1)(c1ccccc1)c1ccccc1` reads inactive: -0.2%; that for `COc1ccc(N)c([N+](=O)[O-])c1[N+](=O)[O-]`, inactive: -0.4%.
As for `Nc1ccc(CCCCOc2ccccc2)cc1`, the survival enhancement was inactive: -0.2%.
For the molecule `O=P(Nc1ccccn1)(c1ccc(Br)cc1)c1ccc(Br)cc1`, the survival enhancement was inactive: -2.5%.
As to `O=c1c2cc([N+](=O)[O-])ccc2[nH]c2c([N+](=O)[O-])cc([N+](=O)[O-])cc12`, the survival enhancement is inactive: -2.6%.
With `CN(C)C(=O)Oc1noc2ccccc12`, the survival enhancement is inactive: -0.1%.
Turning to `CC(NC(=O)COC(=O)C(O)(c1ccccc1)c1ccccc1)c1ccccc1` (configuration not stated), the survival enhancement was inactive: -0.2%.
Regarding `Cc1ccccc1OP(=O)(Nc1ccccn1)Oc1ccccc1C`, the survival enhancement was inactive: -0.7%.
On to `CC(=O)NC(SC(=S)N(CC(C)C)CC(C)C)C(Cl)(Cl)Cl` (configuration not stated), for which the survival enhancement is inactive: -1.2%.
Take `Cc1ccc(OP(=O)(Nc2ccccn2)Oc2ccc(C)cc2)cc1`: the survival enhancement was inactive: -0.3%.
The result for `COC(=O)c1cc2c(s1)N=C(c1ccccc1)N(C)P2(=O)N1CCOCC1` (configuration not stated) reads inactive: -2.2%; that for `CCC(=O)N1C2C3N(C(=O)CC)C1C1N(C(=O)CC)C(C(N1C(=O)CC)N3C(=O)CC)N2C(=O)CC`, inactive: 6.6%.
Turning to `O=C(OC1CN2CCC1CC2)c1ccccc1` (configuration not stated), the survival enhancement is inactive: -0.3%.
As for `O=P1(N(CCCl)CCCl)OCCC2CCCCN21` (configuration not stated), the figure is inactive: 1.9%; as for `O=C(NC1CCS(=O)(=O)C1)NP(=S)(Oc1ccccc1)Oc1ccccc1` (configuration not stated), inactive: -1.9%; as for `CCNC(=S)/N=C(\N)N[N+](=O)[O-]`, inactive: -0.3%.
Regarding `Cc1ccc(NP(=O)(Oc2cccc(C)c2)Oc2cccc(C)c2)nc1`, the survival enhancement is inactive: 0.5%.
For `c1ccc(-c2nn[nH]n2)c(-c2nn[nH]n2)c1`, the survival enhancement is inactive: 1.7%.
With `CC(=O)Nc1ccc(Oc2c([N+](=O)[O-])cc([N+](=O)[O-])cc2[N+](=O)[O-])cc1`, the survival enhancement was inactive: 0%.
In the case of `CC(=O)Nc1ccc([As](=O)(O)O)c(O)c1`, the survival enhancement is inactive: 0%.
Turning to `COC(=O)C1(C)COP(=O)(NCc2ccccc2)OC1` (configuration not stated), the survival enhancement was inactive: 3.4%.
In the case of `CC(=O)c1ccc(N2CC2c2ccncc2)cc1` (configuration not stated), the survival enhancement was inactive: 0.7%.
`N#C/C(=C\c1ccc(N(CCBr)CCBr)cc1)C(N)=O`: the survival enhancement is inactive: 0.5%.
On to `C[C@H]1OP(=O)(Oc2ccccc2)C[C@@H]2O[C@@H]21` (some centres not stated), for which the survival enhancement is inactive: -3.7%.
Turning to `C[C@@H]1C=CCP(=O)(Oc2ccccc2)O1` (some centres not stated), the survival enhancement is inactive: -0.6%.
As for `Cc1ccccc1CN(C)C(=O)COC(=O)C(O)(c1ccccc1)c1ccccc1`, the figure is inactive: -0.4%; as for `CCc1cc(O)c([N+](=O)[O-])c(C)c1[N+](=O)[O-]`, inactive: -2%.
Regarding `CC(C)(C)C(=O)NC(Sc1ccccc1)C(Cl)(Cl)Cl` (configuration not stated), the survival enhancement was inactive: 2.2%.
As for `CCOc1ccc(C2=NCC(CBr)S2)cc1` (configuration not stated), the figure is inactive: 2.1%; as for `O=P1(Nc2nc3ccc(Cl)cc3s2)COc2ccccc2O1` (configuration not stated), inactive: -0.2%.
With `O=[N+]([O-])C1C(O)C(O)C([N+](=O)[O-])C(O)C1O` (configuration not stated), the survival enhancement is inactive: 1.2%.
For `Nc1cc(N)c2nonc2c1[N+](=O)[O-]`, the survival enhancement was inactive: 0%.
As for `CC(C)CC(=O)NC(Sc1ccc(Cl)cc1)C(Cl)(Cl)Cl` (configuration not stated), the figure is inactive: 1.7%; as for `O=C(NC(Sc1ccncn1)C(Cl)(Cl)Cl)c1ccccc1` (configuration not stated), inactive: -1.1%.
As for `Oc1ccccc1CNc1ccccn1`, the figure is inactive: 1%; as for `Cc1ccc(OP(=O)(Nc2nccs2)Oc2ccc(C)cc2)cc1`, inactive: -0.5%.
With `COc1ccccc1OP(=O)(Nc1ccc(C)cn1)Oc1ccccc1OC`, the survival enhancement was inactive: 0.3%.
For `CN1CCCC(OC(=O)C(c2ccccc2)c2ccccc2)C1` (configuration not stated), the survival enhancement was inactive: 1.3%.
`Clc1ccc(Cl)c(NC2=NCC(CBr)S2)c1` (configuration not stated): the survival enhancement was inactive: -0.2%.
In the case of `NC(=O)c1cc([N+](=O)[O-])cc([N+](=O)[O-])c1N`, the survival enhancement was inactive: -0.5%.
On to `Cc1ccc(N/C(=N/P(=O)(N2CCOCC2)N2CCOCC2)N2CCOCC2)cc1`, for which the survival enhancement was inactive: -0.6%.
In the case of `CN(C(=O)Cc1ccc(Cl)c(Cl)c1)[C@H]1CCCC[C@H]1N1CCCC1`, the survival enhancement is inactive: -2.8%.
As for `CCN(N=Nc1nonc1N)c1nonc1N`, the survival enhancement is inactive: 1.5%.
As to `Nc1cccc2ccc([As](=O)(O)O)cc12`, the survival enhancement was inactive: -0.4%.
For the molecule `CN(C(=O)Cc1ccc(Cl)c(Cl)c1)[C@H]1CCCC[C@@H]1N1CCCC1`, the survival enhancement was inactive: -2.4%.
Consider `Cc1ccc(NP(=O)(Oc2ccccc2F)Oc2ccccc2F)nc1`, for which the survival enhancement is inactive: 0.2%.
In the case of `Cc1cc(SC(NC(=O)c2ccc(F)cc2)C(Cl)(Cl)Cl)ncn1` (configuration not stated), the survival enhancement was inactive: -0.2%.
As to `CCOP(=O)(Nc1ccccc1)OCC`, the survival enhancement was inactive: 1.3%.
Turning to `CCCC1OP(N)(=O)OCC1CC` (configuration not stated), the survival enhancement is inactive: 1.3%.
As to `CC(=O)Nc1ccc([As](=O)(O)O)cc1`, the survival enhancement was inactive: -0.7%.
In the case of `O=C(O)c1ccccc1[As](=O)(O)O`, the survival enhancement was inactive: 0.5%.
For the molecule `O=P(Nc1nc2ccc(Cl)cc2s1)(c1ccccc1)c1ccccc1`, the survival enhancement is inactive: -0.6%.
For `CN(C)P(=O)(N(C)C)n1c(Nc2ccccc2)nnc1-c1ccccc1`, the survival enhancement is inactive: -1.4%.
For the molecule `COC(=O)C1(C)COP(=O)(Nc2ccccc2)OC1` (configuration not stated), the survival enhancement is inactive: -1.6%.
With `O=[N+]([O-])c1cccc(NC2=NCC(CBr)S2)c1` (configuration not stated), the survival enhancement was inactive: -0.4%.
The result for `O=C(O)CNc1ccc([As](=O)(O)O)cc1` reads inactive: 1.1%.
Regarding `CC(C)(C)C(=O)NC(Sc1ccncn1)C(Cl)(Cl)Cl` (configuration not stated), the survival enhancement is inactive: 2%.
The result for `O=[N+]([O-])c1ncn(CCn2ncnc2[N+](=O)[O-])n1` reads inactive: -1%.
For the molecule `O=C(Nc1cc([As](=O)(O)O)ccc1O)c1ccccc1`, the survival enhancement is inactive: -0.5%.
Turning to `O=P1(N(CCCl)CCCl)OCCCS1` (configuration not stated), the survival enhancement is inactive: -0.4%.
On to `CN(C)C(=O)OCCc1n(C)cc[n+]1C`, for which the survival enhancement is inactive: -2.7%.
With `CC(C)c1nc(Nc2ccccc2)n(P(=O)(N(C)C)N(C)C)n1`, the survival enhancement was inactive: 0.5%.
Consider `CC(C)=N/N=C(\N)N[N+](=O)[O-]`, for which the survival enhancement was inactive: 0%.
The result for `c1cc(-c2nn[nH]n2)ccc1-c1nn[nH]n1` reads inactive: 4.8%; that for `C[N+]1=C2C=CC=CC=C2SC12C([N+](=O)[O-])=CC([N+](=O)[O-])=C[C-]2[N+](=O)[O-]` (configuration not stated), inactive: 0.6%; that for `Nc1ccc([As](=O)(O)c2ccc(N)cc2)cc1`, inactive: -0.2%.
The result for `CCN(/C(=N/P(=O)(N1CCOCC1)N1CCOCC1)N1CCOCC1)c1ccc(OC)cc1` reads inactive: 4.7%.
`CC(=O)N1C2C3N(C(C)=O)C1C1N(C(C)=O)C(C(N1C(C)=O)N3C(C)=O)N2C(C)=O`: the survival enhancement was inactive: 4.2%.
Turning to `O=[N+]([O-])c1cccc2n[nH]nc12`, the survival enhancement is inactive: 4.3%.
With `O=[N+]([O-])c1cc([N+](=O)[O-])c(CCNc2ccccc2)c([N+](=O)[O-])c1`, the survival enhancement is inactive: -0.2%.
Take `CCc1nc2c(n1)c1c(non1O)c1c2no[n+]1[O-]`: the survival enhancement is inactive: -5.1%.
As for `Cc1ccc(NP(=O)(Oc2ccccc2)Oc2ccccc2)nc1`, the figure is inactive: -1%; as for `COc1ccc(C2=NCC(CBr)S2)cc1` (configuration not stated), inactive: -0.5%.
